Data on one molecule can be found in patent publication US20060079439A1, “Elastin prevents occlusion of body vessels by vascular smooth muscle cells” (priority 2002, published 2006).

This assay relates to Eln −/− vascular smooth muscle cells. Particulars: 1.0 ug/ml, within 3 hours of exposure.

B1: tropoelastin: protein encoded by the elastin gene; human amino acid sequence SEQ ID NO: 2; used as recombinant tropoelastin (protein, listed as Homo sapiens)
chain: MAGLTAAAPRPGVLLLLLSILHPSRPGGVPGAIPGGVPGGVFYPGAGLGALGGGALGPGGKPLKPVPGGLAGAGLGAGLGAFPAVTFPGALVPGGVADAAAAYKAAKAGAGLGGVPGVGGLGVSAGAVVPQPGAGVKPGKVPGVGLPGVYPGGVLPGARFPGVGVLPGVPTGAGVKPKAPGVGGAFAGIPGVGPFGGPQPGVPLGYPIKAPKLPGGYGLPYTTGKLPYGYGPGGVAGAAGKAGYPTGTGVGPQAAAAAAAKAAAKFGAGAAGVLPGVGGAGVPGVPGAIPGIGGIAGVGTPAAAAAAAAAAKAAKYGAAAGLVPGGPGFGPGVVGVPGAGVPGVGVPGAGIPVVPGAGIPGAAVPGVVSPEAAAKAAAKAAKYGARPGVGVGGIPTYGVGAGGFPGFGVGVGGIPGVAGVPSVGGVPGVGGVPGVGISPEAQAAAAAKAAKYGVGTPAAAAAKAAAKAAQFGLVPGVGVAPGVGVAPGVGVAPGVGLAPGVGVAPGVGVAPGVGVAPGIGPGGVAAAAKSAAKVAAKAQLRAAAGLGAGIPGLGVGVGVPGLGVGAGVPGLGVGAGVPGFGAGADEGVRRSLSPELREGDPSSSQHLPSTPSSPRVPGALAAAKAAKYGAAVPGVLGGLGALGGVGIPGGVVGAGPAAAAAAAKAAAKAAQFGLVGAAGLGGLGVGGLGVPGVGGLGGIPPAAAAKAAKYGAAGLGGVLGGAGQFPLGGVAARPGFGLSPIFPGGACLGKACGRKRK
For B1, the “increase of the percentage of Eln −/− cells with organized actin stress fibers” value stood at 3 fold. Further, the “percentage of Eln −/− cells with organized actin stress fibers” value (untreated Eln −/− cells 23%) is 74%.
